# Measured affinities in a library of Ab-14 heavy chain variants

Data: MIT Lincoln Laboratory AlphaSeq set, Li et al. 2023, doi:10.1038/s41467-023-39022-2, as distributed in FLAb.

Binding partner: SARS-CoV-2 spike HR2 peptide, sequence PDVDLGDISGINAS.

Parent scFv Ab-14: VH joined to VL by the linker GGGGSGGGGSGGGGS. Changes lie in the heavy chain CDRs alone.
VH: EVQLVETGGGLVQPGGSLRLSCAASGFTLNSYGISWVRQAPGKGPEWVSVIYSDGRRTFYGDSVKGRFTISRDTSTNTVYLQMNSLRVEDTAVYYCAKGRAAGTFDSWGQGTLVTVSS
VL: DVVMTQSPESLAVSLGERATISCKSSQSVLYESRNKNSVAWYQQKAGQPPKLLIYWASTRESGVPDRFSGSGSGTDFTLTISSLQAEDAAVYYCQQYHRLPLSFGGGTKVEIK

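The starting antibody came from a phage panning campaign against this peptide. Designed CDR sequences, proposed from the first random library and measured here. Group labels follow the data file (Ctrl: baseline library sampled from a position-specific scoring matrix, with some repeated check sequences; Rand: our label for a block that the file lists under HC and that is probably the random mutants of the ten best first-round binders; En: ensemble of fine-tuned language models; GP: Gaussian process model; GPLM: also part of the Gaussian process libraries; HC: hill climbing; Gen: genetic algorithm; Gibbs: Gibbs sampling; a sequence that several methods proposed may carry one label only). The scFvs were displayed on barcoded MATa yeast, the peptide on MATalpha yeast. Pairs that bind mate more often; barcode pairs of the diploids are counted by sequencing. The ratio of observed to expected reads was calibrated, replicate by replicate, on BCL2-family standards whose Kd was known from biolayer interferometry. Each pool was mated in six replicate cultures.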

Variants are written as CDR1, CDR2 and CDR3 of the heavy chain (limits as in the source). Parent: GFTLNSYGIS, VIYSDGRRTFYGDSVK, GRAAGTFDS.
Each Kd is an estimate from the mating assay, the geometric mean of the replicates in which the pair was seen; lower is stronger.
"no signal" means that the variant was in the library but no mating with the target was seen in any replicate; the authors take this as a sign of poor binding, and no number exists.
In the paper, a design with two or fewer of six values counts as a poor binder.

CDR-H1 | CDR-H2 | CDR-H3 | group | Kd | replicates with signal | empty controls
GFDLNEYGIS | VIYADGMRTFYADSVK | GQIAGTFDQ | En_HC | 660 pM | 6 of 6 | 0 of 18
GFDLDEYGIS | VIYADGKRTAYADNVK | GNVAGTFDI | En_Gen | 350 pM | 6 of 6 | 0 of 18
GFTLNEYGIS | VIYSDGRRTFYTDSVK | GKAAGTFDL | GP_HC | 9.1 nM | 6 of 6 | 1 of 18
GFDLNSYGIS | VIYSDGQRTFYGDSVK | GKAAGTFDS | GP_Gen | 2.3 nM | 6 of 6 | 0 of 18
GFTLNDYGIS | VIYSDGRRTFYGDSVK | GKEAGTFDS | GP_HC | 470 pM | 6 of 6 | 0 of 18
GFDLNEYGIS | VIYADGQRTFYIDSVK | GEIAGTFNT | En_HC | 5.3 nM | 6 of 6 | 1 of 18
GFDLNEYGIS | VIYADGRRTFYIDSVK | GENAGTFDI | En_HC | 390 pM | 6 of 6 | 0 of 18
GFDLDEYGIS | VIYADGRRTAYSDSVK | GNVAGTFDL | En_Gen | 190 pM | 6 of 6 | 0 of 18
GFDLNSYGIS | VIYSDGKRTFYIDSVK | GRQAGTFDS | GP_Gen | 1.4 nM | 6 of 6 | 0 of 18
GFSLNEYGIS | VIYSDGRRTFYGDSVK | GRMAGTFDK | GP_Gibbs | 1.5 nM | 6 of 6 | 0 of 18
GFNLNEYGIS | VIYADGQRLSYDDKVK | GQIGGTFND | En_Gibbs | 1.6 nM | 6 of 6 | 0 of 18
GFDLDEYGIS | VIYADGKRTAYADSVK | GNTAGTFDI | En_Gen | 190 pM | 6 of 6 | 0 of 18
YFDLNSYGIS | VIYSDGRRTFYIDSVK | GKAAGTFDS | GP_Gibbs | 26 nM | 4 of 6 | 0 of 18
GFDLNEYGIS | VIYADGQRTAYSDSVK | GNVAGTFDL | En_Gen | 730 pM | 6 of 6 | 0 of 18
GFDLNEYGIS | VIYADGMRTVYADSVK | GSNAGTFDI | En_Gen | 120 pM | 6 of 6 | 2 of 18
GFQLDEYGIS | VIYADGLRQYYAQNVK | GYNSFDIND | En_Gibbs | no signal | 0 of 6 | 0 of 18
GFDLNEYGIS | VIYADGVRSFYADSVK | GQLAGTFDS | En_HC | 260 pM | 6 of 6 | 1 of 18
GFTLNSYGIS | VIYSDGRREFYGDSVK | GRYAGTFDS | Ctrl | no signal | 0 of 6 | 1 of 18
GFDLNSYGIS | VIYSDGRRTFYGDSVK | GREAGTFDA | GP_Gen | 770 pM | 6 of 6 | 0 of 18
GFTLNEYGIS | VIYSDGRRTFYTDSVK | GRFAGTFGS | Rand | no signal | 0 of 6 | 0 of 18
GFNLNEYGIS | VIYADGQRTFYADSVK | GEIAGTFDV | En_HC | 290 pM | 6 of 6 | 1 of 18
GFTLNSYGYS | VIYSDGRRTFYGDSVK | GRAAVTFDS | Ctrl | no signal | 0 of 6 | 0 of 18
GFTMNTYGIS | VIYSDGRRTFYSDSVK | GFAAGTFDS | Ctrl | no signal | 0 of 6 | 0 of 18
GFELNSYGIS | VIYSDGQRTFYGDSVK | GKTAGTFDS | GP_Gibbs | 4.2 nM | 6 of 6 | 1 of 18
GFTLSSYGIS | VIYSDGRRTFYGDSVK | GTAAGTFDS | Ctrl | 34 nM | 4 of 6 | 0 of 18
GMNLDEYGIS | VIYADGSRVFYVQDVK | GTVDTVGDV | En_Gibbs | no signal | 0 of 6 | 1 of 18
GFDLEEYGIS | VIYADGMRTAYADSVK | GNVAGTFDV | En_Gen | 150 pM | 6 of 6 | 1 of 18
GFDLNEYGIS | VIYADGVRTAYADSVK | GDNAGTFDV | En_Gen | 640 pM | 6 of 6 | 0 of 18
GFDLNSYGIS | VIYSDGRRTFYSDSVK | GRSAGTFDS | GP_HC | 610 pM | 6 of 6 | 0 of 18
GFTLNSYGIS | VIYSDGRRTFYADSVK | GRAAVTFDT | GP_HC | no signal | 0 of 6 | 1 of 18
YFTLNEYGIS | VIYSDGRRTFYTDSVK | GRFAFTFDS | Rand | no signal | 0 of 6 | 0 of 18
GFGLDEYGIS | VIYADGRRTFYSDSVK | GSTAGTFDV | En_HC | 240 pM | 6 of 6 | 0 of 18
GFNLNSYGIS | VIYSDGRRTFYQDSVK | GKVAGTFDS | GP_Gibbs | 3.0 nM | 6 of 6 | 0 of 18
GFSLNSYGIS | VIYSDGRRTFYGDSVK | GQAAGTFDF | GPLM_Gen | 39 nM | 6 of 6 | 0 of 18
GFSLNSYGIS | VIYSDGRRTFYGDSVK | GRAAGTFDV | GPLM_Gen | 4.4 nM | 6 of 6 | 1 of 18
GFDLNSYGIS | VIYSDGRRTFYGDSVK | GAAASTFDI | Ctrl | 15 nM | 2 of 6 | 0 of 18
GFTLGSYGIS | VIYSDGRRTFYGDQVR | GRHAGTFDS | Ctrl | no signal | 0 of 6 | 0 of 18
GFNLDEYGIS | VIYADGRRTFYADSVK | GGNAGTFDV | En_HC | no signal | 0 of 6 | 0 of 18
GFTLNMYGSS | VIYSDGRRTFYGDSVK | GRAAGTFDS | Ctrl | no signal | 0 of 6 | 0 of 18
GFDLGEYGIS | VIYADGKRTACVENVK | GTFGGTLLD | En_Gibbs | no signal | 0 of 6 | 0 of 18
GFTLNSYGIS | VIYSDGRRTFYGDSVK | GEAAWTFDS | Ctrl | no signal | 0 of 6 | 0 of 18
GFALNSYGIS | VIYSDGRRTFYADSVK | GQAAGTFDL | GPLM_Gen | 5.0 nM | 6 of 6 | 0 of 18
GFDLNEYGIS | VIYADGRRTFYADSVK | GENAGTFDM | En_Gen | 820 pM | 6 of 6 | 0 of 18
GNDLNEYGIS | VIYADGQRTSYASSVK | GDIRGYFDS | En_Gibbs | 12 µM | 1 of 6 | 1 of 18
GFKLNSYGIS | VIYSDGRRTFYADSVK | GRAAGTFDS | Ctrl | 290 nM | 6 of 6 | 0 of 18
GFSLNSYGIS | VIYSDGRRTFYGDSVK | GRTAGTFDH | GPLM_Gen | no signal | 0 of 6 | 0 of 18
GFDLNEYGIS | VIYADGRRTAYVDSVK | GENAGTFDI | En_Gen | 910 pM | 6 of 6 | 0 of 18
GFNLNSYGIS | VIYSDGRRTFYFDSVK | GQTAGTFDS | GPLM_Gen | no signal | 0 of 6 | 0 of 18
GFDLDEYGIS | VIYADGRRTAYTDSVK | GNVAGTFDQ | En_Gen | 440 pM | 6 of 6 | 0 of 18
GFWLNDYGIS | VIYSDGRRTFYADSVK | GRAAGTFDM | GP_HC | 820 pM | 1 of 6 | 0 of 18
GFDLNEYGIS | VIYADGVRTFYADSVK | GNVAGTFFS | En_HC | 620 pM | 6 of 6 | 0 of 18
GFDLDEYGIS | VIYADGRRTFYADSVK | GETAGTFDW | En_HC | 310 pM | 6 of 6 | 1 of 18
GFVLNSYGIS | VIYSDGRRTFYGDSVK | GRAIGTFDS | Ctrl | no signal | 0 of 6 | 0 of 18
GFTLQSYGIS | VIYSDGRRTFYDDSVK | GRWAGTFDL | Ctrl | no signal | 0 of 6 | 0 of 18
GFDLDEYGIS | VIYADGVREAYIDSVK | GNWSGTIMY | En_Gibbs | no signal | 0 of 6 | 0 of 18
GFNLNSYGIS | VIYSDGRRTFYGDDVK | GRNAGTFDS | GP_Gen | 12 nM | 6 of 6 | 0 of 18
GFDLDQYGIS | VIYADGIRSYYADAVK | GHEGGILYV | En_Gibbs | no signal | 0 of 6 | 0 of 18
GFDLNEYGIS | VIYADGMRTAYADSVK | GNNAGTFDI | En_Gen | 540 pM | 6 of 6 | 0 of 18
GFHLNSYGIS | VIYSDGRRTFYSDSVK | GQAGGTFDS | GP_HC | no signal | 0 of 6 | 0 of 18
GFDLDEYGIS | VIYADGGRVSYAQNVK | GLVGKGGDV | En_Gibbs | no signal | 0 of 6 | 0 of 18
GFTLNSYGRS | VIYSDGRRTFYGDQVK | GSAAGTFDT | Ctrl | no signal | 0 of 6 | 1 of 18

Top 8 of the variants detected in all replicates, tightest first:

CDR-H1	CDR-H2	CDR-H3	group	Kd	replicates with signal	empty controls
GFDLNEYGIS	VIYADGMRTVYADSVK	GSNAGTFDI	En_Gen	120 pM	6 of 6	2 of 18
GFDLEEYGIS	VIYADGMRTAYADSVK	GNVAGTFDV	En_Gen	150 pM	6 of 6	1 of 18
GFDLDEYGIS	VIYADGRRTAYSDSVK	GNVAGTFDL	En_Gen	190 pM	6 of 6	0 of 18
GFDLDEYGIS	VIYADGKRTAYADSVK	GNTAGTFDI	En_Gen	190 pM	6 of 6	0 of 18
GFGLDEYGIS	VIYADGRRTFYSDSVK	GSTAGTFDV	En_HC	240 pM	6 of 6	0 of 18
GFDLNEYGIS	VIYADGVRSFYADSVK	GQLAGTFDS	En_HC	260 pM	6 of 6	1 of 18
GFNLNEYGIS	VIYADGQRTFYADSVK	GEIAGTFDV	En_HC	290 pM	6 of 6	1 of 18
GFDLDEYGIS	VIYADGRRTFYADSVK	GETAGTFDW	En_HC	310 pM	6 of 6	1 of 18

The parent sequence was in this pool as ten entries: three were never detected, three once, and four in most replicates, with averages from 2.2 nM to 240 nM.
A sequence measured in both rounds can read differently, since the two assays cover different ranges.
Background: pairings of all heavy chain designs with three empty control strains gave a value in 1% of cases (median 120 nM, 5th percentile 7.0 nM). Values in that range, when seen in few replicates, are hard to tell from nonspecific mating. The control count says in how many pairings with the empty strains this scFv gave a signal.